The subject of one experiment is PC-3. Nature of the experiment: CTG cell survival assay, PC-3. Type of experiment: cell-based. The following applies: Homo sapiens, PC-3 cells. The source says: (§1) 2. CTG Cell Survival Assay:
(§2) ATP is necessarily produced during the metabolic activities of viable cells, and there is a linear relationship between the content of ATP and the number of viable cells. Cell viability assay by CTG chemiluminescence is a general method for detecting the number of viable cells in the culture cells based on this principle. The addition of the CellTiter-Glo (CTG) reagent may induce cell lysis and produce chemiluminescent signals directly proportional to the amount of ATP in the well-plate, and thereby the cell proliferation activity in the well-plate can be measured by the reading values from the chemiluminescence.
(§3) 2.1 Experimental Materials and Instruments: […]
(§4) 2.2 Experimental Instruments: Carbon Dioxide Incubator, SANYO-MCO-20AIC, Biosafe Cabinet: BSC-1360-LIIA2, Table-Top High-Speed Refrigerated Centrifuge: SorvallST 16R, Microplate Rapid Oscillator: QB-9001, M3 Reader: SpectraMax M3, Microscope: OLYMPUS-CKX41/CKX31. […]
(§5) 2.4 Experimental Procedure: • 1.4.1 Cell Thawing: Cryogenic vials were removed from the liquid nitrogen container, directly immersed in a water bath at 37° C., and shaked from time to time to thaw. […] The solution was transferred to a centrifuge tube, centrifuged for 5 min at 1000 rpm, and counted. […]

A further experiment concerns SK-BR3/BT474. Nature of the experiment: CTG cell survival assay, SK-BR3/BT474. The conditions noted are these: SK-BR3/BT474 cells. Type of experiment: cell-based.
From the text: as §1, §2, §3, §4, §5

Results on two compounds are retold here after patent publication US10047084B2, “Imidazolone derivatives, pharmaceutical compositions and uses thereof” (BEIJING FORELANDPHARMA CO. LTD., priority 2013, dated 2018).

On to `CN1CCC(n2c(=O)n(C)c3cnc4ccc(-c5ccc(-c6cnn(C)c6)nc5)cc4c32)C1` (stereo not shown) [Example 9, 3-methyl-8-(6-(1-methyl-1H-pyrazol-4-yl)pyridin-3-yl)-1-(1-methylpyrrolidin-3-yl)-1H-imidazo[4,5-c]quinolin-2(3H)-one], for which the values for the EC50 in the experiment with PC-3 and in the experiment on SK-BR3/BT474 were less than 100 nM and less than 1000 nM, respectively.

Regarding `Cn1cc(-c2ccc(-c3ccc4ncc5c(c4c3)n(C3CCN(Cc4ccccc4)C3)c(=O)n5C)cn2)cn1` (stereo not shown) [Example 12, 1-(1-benzylpyrrolidin-3-yl)-3-methyl-8-(6-(1-methyl-1H-pyrazol-4-yl)pyridin-3-yl)-1H-imidazo[4,5-c]quinolin-2(3H)-one], the values for the EC50 with PC-3 and with SK-BR3/BT474 were less than 500 nM and less than 1000 nM, respectively.
